Reference: US20130029959A1, “COMPOSITIONS AND METHODS FOR THE TREATMENT OF CANCER” (Massachusetts Institute of Technology, priority 2011, published 2013)

Assays:
[1] = tested on: normal lung fibroblast MRC5; assay: MTT assay, MRC5 cells; type: cell-based, human; details: MRC5, 72-h incubation, Table 5
[2] = tested on: human colon carcinoma HT29 cells; assay: MTT assay, HT29 cells; type: cell-based; details: HT29, 72-h incubation, Table 5
[3] = tested on: human lung carcinoma A549 cells; assay: MTT assay, A549 cells; type: cell-based; details: A549, 72-h incubation, Table 5
calf thymus DNA = assay: Ethidium bromide DNA-binding competition, Scatchard analysis; design: key: competitive (type A); non-competitive (type D); both (type B); No inhibition of ethidium binding is labeled as type C

Structure (SMILES)	IC50 [1]	IC50 [2]	IC50 [3]	type of inhibition of ethidium binding (calf thymus DNA; 12-h incubation period)	type of inhibition of ethidium binding (calf thymus DNA; 1 min incubation period)
Cc1ccccn1.N.N.O=[N+]([O-])[O-].[Cl][Pt+] [cis-[Pt(NH3)2 (2-methylpyridine)Cl]NO]	59.9 ± 4.2 µM	63.8 ± 1.9 µM	50.6 ± 1.7 µM	–	–
N.N.[Cl][Pt][Cl] [cisplatin]	–	–	–	C	C
